Structures are written as SMILES. Like-named read-outs stand apart in the source and are kept apart here.

Amino acid sequences for entries named in this document (tags omitted). Residues count along the entry.
UniProt P35968, 20-1356 limits assumed: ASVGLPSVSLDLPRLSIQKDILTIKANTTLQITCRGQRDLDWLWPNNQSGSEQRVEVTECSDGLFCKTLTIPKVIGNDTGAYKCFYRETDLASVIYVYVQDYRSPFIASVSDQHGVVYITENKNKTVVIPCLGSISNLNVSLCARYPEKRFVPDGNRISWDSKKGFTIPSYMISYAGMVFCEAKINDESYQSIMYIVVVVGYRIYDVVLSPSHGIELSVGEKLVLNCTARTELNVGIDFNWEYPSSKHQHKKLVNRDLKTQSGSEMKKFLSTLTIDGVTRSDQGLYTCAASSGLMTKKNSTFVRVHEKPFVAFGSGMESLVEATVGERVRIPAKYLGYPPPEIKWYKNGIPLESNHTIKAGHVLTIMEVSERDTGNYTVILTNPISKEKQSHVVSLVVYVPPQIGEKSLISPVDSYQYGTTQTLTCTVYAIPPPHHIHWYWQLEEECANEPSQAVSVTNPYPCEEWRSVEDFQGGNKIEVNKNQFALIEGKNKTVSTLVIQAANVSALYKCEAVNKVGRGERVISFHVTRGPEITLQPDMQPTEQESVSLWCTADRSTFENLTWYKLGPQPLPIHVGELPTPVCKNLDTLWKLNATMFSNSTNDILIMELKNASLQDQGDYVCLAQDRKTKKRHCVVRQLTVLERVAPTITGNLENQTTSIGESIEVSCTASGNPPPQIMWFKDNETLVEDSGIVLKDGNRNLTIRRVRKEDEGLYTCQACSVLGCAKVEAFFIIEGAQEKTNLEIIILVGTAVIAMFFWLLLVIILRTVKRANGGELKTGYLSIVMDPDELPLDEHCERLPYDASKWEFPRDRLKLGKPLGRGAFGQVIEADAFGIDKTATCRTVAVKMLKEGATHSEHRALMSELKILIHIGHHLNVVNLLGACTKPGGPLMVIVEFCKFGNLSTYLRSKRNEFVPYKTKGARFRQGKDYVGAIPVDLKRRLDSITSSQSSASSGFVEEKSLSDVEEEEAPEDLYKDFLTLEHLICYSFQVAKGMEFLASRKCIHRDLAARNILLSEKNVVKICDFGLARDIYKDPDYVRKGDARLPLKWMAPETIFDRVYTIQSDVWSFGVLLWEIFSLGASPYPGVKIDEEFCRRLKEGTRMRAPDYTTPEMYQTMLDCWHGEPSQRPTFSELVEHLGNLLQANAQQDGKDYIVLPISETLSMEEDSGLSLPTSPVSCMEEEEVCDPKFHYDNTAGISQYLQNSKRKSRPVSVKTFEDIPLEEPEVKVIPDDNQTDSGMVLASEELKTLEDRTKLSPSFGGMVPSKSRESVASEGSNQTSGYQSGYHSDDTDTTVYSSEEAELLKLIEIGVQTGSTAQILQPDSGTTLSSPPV
UniProt P11362, 22-822 limits assumed: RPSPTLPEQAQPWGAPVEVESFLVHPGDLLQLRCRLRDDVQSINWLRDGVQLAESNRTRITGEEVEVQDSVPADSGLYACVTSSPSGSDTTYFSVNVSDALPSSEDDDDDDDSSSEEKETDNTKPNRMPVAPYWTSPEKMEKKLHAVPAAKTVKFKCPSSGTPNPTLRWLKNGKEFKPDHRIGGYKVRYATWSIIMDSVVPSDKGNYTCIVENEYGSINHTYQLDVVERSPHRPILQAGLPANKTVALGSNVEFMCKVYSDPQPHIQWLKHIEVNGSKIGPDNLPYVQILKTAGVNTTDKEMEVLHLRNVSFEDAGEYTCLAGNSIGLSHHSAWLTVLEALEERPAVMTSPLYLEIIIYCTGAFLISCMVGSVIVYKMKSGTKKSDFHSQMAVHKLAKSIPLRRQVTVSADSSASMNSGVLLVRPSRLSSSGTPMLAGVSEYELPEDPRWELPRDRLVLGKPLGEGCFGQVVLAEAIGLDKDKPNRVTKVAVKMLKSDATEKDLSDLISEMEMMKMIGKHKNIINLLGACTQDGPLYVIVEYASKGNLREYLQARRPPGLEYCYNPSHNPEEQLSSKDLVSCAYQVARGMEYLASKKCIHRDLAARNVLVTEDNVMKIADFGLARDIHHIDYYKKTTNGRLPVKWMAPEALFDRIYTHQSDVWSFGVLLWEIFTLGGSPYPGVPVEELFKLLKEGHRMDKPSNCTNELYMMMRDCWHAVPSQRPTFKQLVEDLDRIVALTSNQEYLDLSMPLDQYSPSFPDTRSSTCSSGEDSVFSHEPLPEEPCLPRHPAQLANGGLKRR

These results are taken from patent publication US20240156825A1.

Assay [1] relates to VEGFR2 and FGFR1. Briefly: Selection of compounds that selectively inhibit both VEGFR2 and FGFR1 (average relative IC50).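 Also: relative IC50 is the IC50 for VEGFR2 or FGFR1 divided by the next-lowest IC50 reported against any target gene.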 It is filed as biochemical.
Assay [2] deals with VEGFR2 (Homo sapiens, UniProt P35968). The following applies: read-out: VEGFR2 IC50_μM, reported IC50 to VEGFR2, cited from earlier work.
The subject of assay [3] is any gene target. The following applies: cited from earlier work.
Assay [4] concerns the target FGFR1 (Homo sapiens, UniProt P11362). Particulars: read-out: FGFR1 IC50_μM; reported IC50 to FGFR1; cited from earlier work.
Setting [5] is: Table 3, selective inhibitors of VEGFR2.
Setting [6] is: read-out: Min IC50_μM, next lowest IC50 value to any gene target, Table 3.

In the case of `COc1cc2c(Nc3c(F)cc(Br)cc3F)ncnc2cc1OCCn1ccnn1`, the “avg rIC50” value in assay [1] is listed as 3.0. In addition, the IC50 in assay [2] (setting [5]) was 20 nM; in assay [3] (setting [6]), 0.02 µM; in assay [3] (read-out: min IC50 μM, lowest reported IC50 to any gene target) it was 0.02 µM.

For `COc1cc2c(Nc3ccc(Cl)c(Cl)c3)ncnc2cc1OCc1nc2c(s1)CN(C)CC2`, the IC50 is 50 nM in assay [2] (setting [5]) and 0.05 µM in assay [3] (setting [6]).

In the case of `COc1cc(OC)cc(-c2cc3cnc(NCCCCO)cc3nc2NC(=O)NC(C)(C)C)c1`, the “avg rIC50” value in assay [1] was 1.4.

Turning to `Cn1cc(-c2cnn3c(N)c(-c4ccc(NC(=O)Nc5cccc(C(F)(F)F)c5)cc4)cnc23)cn1`, the IC50 in assay [2] was 0.7 nM; in assay [3] (read-out: Min IC50_μM, next lowest IC50 value to any gene target), 0.003 µM.

For the compound `CCN1CCC2N=C(COc3cc4ncnc(Nc5ccc(Cl)c(Cl)c5)c4cc3OC)SC2C1` (stereo not shown), the IC50 in assay [2] (setting [5]) is 50 nM; in assay [3] (setting [6]), 0.05 µM.

As for `CONC(=O)c1cc(Nc2ncnn3cc(-c4nnc(C(C)C)o4)c(C(C)C)c23)c(F)cc1F` [compound 11442803], the IC50 in assay [4] is 1 nM.

As for `CCN(CC)CCCCCNc1cc2nc(NC(=O)NC(C)(C)C)c(-c3cc(OC)cc(OC)c3)cc2cn1`, in assay [1], the “avg rIC50” value worked out at 1.5.
